# Laboratory results published in US6372772B1, “Inhibitors of redox signaling and methods of using same” (Prolx Pharmaceuticals Corporation, priority 1997, dated 2002).
# Target: T1, thioredoxin reductase/thioredoxin (Homo sapiens, UniProt Q16881)
# T1 sequence (Q16881 1-499 isoform Q16881-5): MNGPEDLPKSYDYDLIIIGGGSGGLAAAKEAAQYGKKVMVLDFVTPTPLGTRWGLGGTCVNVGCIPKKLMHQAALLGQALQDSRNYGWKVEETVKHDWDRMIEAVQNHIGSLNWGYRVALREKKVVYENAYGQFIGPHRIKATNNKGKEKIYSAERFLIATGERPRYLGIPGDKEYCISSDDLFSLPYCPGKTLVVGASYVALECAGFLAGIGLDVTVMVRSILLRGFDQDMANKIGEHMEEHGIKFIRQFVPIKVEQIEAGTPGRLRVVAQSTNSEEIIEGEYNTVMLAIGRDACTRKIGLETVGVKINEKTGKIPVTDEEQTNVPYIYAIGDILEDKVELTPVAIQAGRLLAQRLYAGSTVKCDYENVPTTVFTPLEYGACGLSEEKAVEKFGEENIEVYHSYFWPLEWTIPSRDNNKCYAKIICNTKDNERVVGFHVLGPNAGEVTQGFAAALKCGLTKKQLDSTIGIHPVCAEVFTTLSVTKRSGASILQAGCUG
# Test: thioredoxin reductase/thioredoxin-dependent insulin reduction assay
# Assay type: biochemical
# Conditions: Table III; read-out: in vitro IC50 TR/Trx (μg/ml) (converted)
structure (smiles),measurement,value
"CCC(C)SSc1ncc[nH]1 (stereo not shown) [IV-2, 1-methylpropyl 2-imidazolyl disulfide]",IC50,37.2 µM
